Tests used:
OATP1B1 = OATP1B1 (Homo sapiens, UniProt Q9Y6L6); assay: Uptake into stable transfected OATP1B1 HEK 293 cells; format: cell-based; details: for Uptake into OATP1B1-HEK 293 cells: 40 min incubation, relative to RC1 (Gd-EOB-DTPA); for Inhibition Rifampicine: uptake into OATP1B1-HEK 293 cells
Method: (§1) Cryopreserved cells were shortly thawed in water bath and diluted in 10 mL warm culture medium (37° C.). After medium change the cells were grown for 3d in a 25 cm^2 cell culture flask. After 3 to 5d the cells were transferred into 75 cm^2 flasks. […] All test items were prepared in transport buffer at a final concentration of 100 M from stock solutions (180 to 500 mM concentration). The OATP1B1 HEK 293 cells were incubated with test solutions (test item in transport buffer 500 L) for 40 min on a thermoshaker without shaking (PHMP, Fa. Grant Bio). Triplicates were performed for each test item. After incubation the cells were washed with 2 mL of cold PBS (+) buffer (Dulbeccos PBS+, Fa. Gibco). […] As a reference standard Gd-EOB-DTPA (gadoxetate) is used in the same well plate.

By UniProt entry, the sequences of proteins in these tests, tags left out. Where a name states a change or a piece, a line headed by the entry shows the natural chain unless it says otherwise.
UniProt Q9Y6L6: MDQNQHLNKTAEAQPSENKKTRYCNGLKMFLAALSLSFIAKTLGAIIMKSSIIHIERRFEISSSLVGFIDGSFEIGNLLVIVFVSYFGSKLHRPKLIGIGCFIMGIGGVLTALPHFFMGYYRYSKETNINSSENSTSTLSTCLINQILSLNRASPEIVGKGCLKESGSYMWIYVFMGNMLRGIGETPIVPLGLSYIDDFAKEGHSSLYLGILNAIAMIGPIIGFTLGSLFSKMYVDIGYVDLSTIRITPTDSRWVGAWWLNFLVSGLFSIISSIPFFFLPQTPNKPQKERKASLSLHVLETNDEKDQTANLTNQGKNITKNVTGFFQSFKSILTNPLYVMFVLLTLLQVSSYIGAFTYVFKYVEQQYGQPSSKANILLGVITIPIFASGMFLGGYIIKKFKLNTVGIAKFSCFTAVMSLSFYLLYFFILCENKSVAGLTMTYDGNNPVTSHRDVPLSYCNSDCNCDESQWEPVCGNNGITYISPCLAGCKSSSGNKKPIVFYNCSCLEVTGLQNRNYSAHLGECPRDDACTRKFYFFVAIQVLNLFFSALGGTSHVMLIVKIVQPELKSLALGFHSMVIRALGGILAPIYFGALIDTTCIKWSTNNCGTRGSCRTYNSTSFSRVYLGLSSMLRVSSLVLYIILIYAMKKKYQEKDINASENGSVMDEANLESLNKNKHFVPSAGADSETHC
UniProt Q9NPD5: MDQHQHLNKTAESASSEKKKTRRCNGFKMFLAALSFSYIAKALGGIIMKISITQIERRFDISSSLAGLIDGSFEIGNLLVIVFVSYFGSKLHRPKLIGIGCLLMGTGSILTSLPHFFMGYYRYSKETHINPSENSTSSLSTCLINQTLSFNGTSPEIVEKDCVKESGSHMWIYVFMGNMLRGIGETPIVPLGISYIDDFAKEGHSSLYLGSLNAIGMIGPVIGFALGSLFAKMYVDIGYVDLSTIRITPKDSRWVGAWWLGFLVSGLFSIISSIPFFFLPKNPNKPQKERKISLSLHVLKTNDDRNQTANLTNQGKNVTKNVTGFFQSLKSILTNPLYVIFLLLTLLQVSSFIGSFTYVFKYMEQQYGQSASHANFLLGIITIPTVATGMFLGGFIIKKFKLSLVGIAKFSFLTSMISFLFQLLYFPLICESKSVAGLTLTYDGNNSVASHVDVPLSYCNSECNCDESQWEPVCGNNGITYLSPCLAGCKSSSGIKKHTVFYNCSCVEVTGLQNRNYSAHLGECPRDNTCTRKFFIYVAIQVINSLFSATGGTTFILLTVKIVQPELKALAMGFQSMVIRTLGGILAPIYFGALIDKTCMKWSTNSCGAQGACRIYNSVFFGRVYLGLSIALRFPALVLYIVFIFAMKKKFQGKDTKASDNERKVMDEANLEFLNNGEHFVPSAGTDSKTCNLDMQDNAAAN

OATP1B3 = OATP1B3 (Homo sapiens, UniProt Q9NPD5); assay: Uptake into stable transfected OATP1B3 HEK 293 cells; format: cell-based; details: for Uptake into OATP1B3-HEK 293 cells: 40 min incubation, relative to RC1 (Gd-EOB-DTPA); for Inhibition Rifampicine: uptake into OATP1B3-HEK 293 cells
Method: as §1, with “100 µM” for “100 M”, “The OATP1B3” for “The OATP1B1”, “500 μL)” for “500 L)”

Compound | Uptake into OATP1B1-HEK 293 cells (OATP1B1) | Inhibition Rifampicine (OATP1B1) [% inhibition] | Uptake into OATP1B3-HEK 293 cells (OATP1B3) | Inhibition Rifampicine (OATP1B3) [% inhibition]
CCOCCOCCOc1ccc(CC(C(=O)O)N2CCN(CC(=O)[O-])CCN(C(C)C(=O)[O-])CCN(CC(=O)[O-])CC2)cc1.[Gd+3] (single isomer, unassigned) [Example 5, gadolinium 2-[7-(1-carboxy-2-{4-[2-(2-ethoxyethoxy)ethoxy]phenyl}ethyl)-4,10-bis(carboxylatomethyl)-1,4,7,10-tetraazacyclododecan-1-yl]propanoate] | 79 % of RC1 | 50 | – | –
CCOCCOCCOc1ccc(CC(C(=O)O)N2CCN(CC(=O)[O-])CCN(C(C)C(=O)[O-])CCN(CC(=O)[O-])CC2)cc1.[Gd+3] (single isomer, unassigned) [Example 6, gadolinium 2-[7-(1-carboxy-2-{4-[2-(2-ethoxyethoxy)ethoxy]phenyl}ethyl)-4,10-bis(carboxylatomethyl)-1,4,7,10-tetraazacyclododecan-1-yl]propanoate] | 121 % of RC1 | 66 | – | –
CCOCCOCCOc1ccc(CC(C(=O)O)N2CCN(CC(=O)[O-])CCN(CC(=O)[O-])CCN(CC(=O)[O-])CC2)nc1.[Gd+3] (centres unmarked) [Example 23, gadolinium 2,2′,2″-{10-[1-carboxy-2-{5-[2-(2-ethoxyethoxy)ethoxy]pyridin-2-yl}ethyl]-1,4,7,10-tetraazacyclododecane-1,4,7-triyl}triacetate] | 46 % of RC1 | – | 14 % of RC1 | –
CCOCCOCCOc1ccc(CC(C(=O)O)N2CCN(C(CCO)C(=O)[O-])CCN(C(CCO)C(=O)[O-])CCN(C(CCO)C(=O)[O-])CC2)cc1.[Gd+3] (centres unmarked) [Example 37, gadolinium-2,2′-{4-[1-carboxy-2-{4-[2-(2-ethoxyethoxy)ethoxy]phenyl}ethyl]-10-[1-carboxylato-3-hydroxypropyl]-1,4,7,10-tetraazacyclododecane-1,7-diyl}bis(4-hydroxybutanoate)] | 1558 % of RC1 | 13 | 123 % of RC1 | 44
CCOCCOCCOCCOc1ccc(C[C@@H](C(=O)O)N2CCN(CC(=O)[O-])CCN(CC(=O)[O-])CCN(CC(=O)[O-])CC2)c(OCCOCCOCCOCC)c1.[Gd+3] [Example 40, gadolinium 2,2′,2″-{10-[(1S)-2-(2,4-bis {2-[2-(2-ethoxyethoxy)ethoxy]ethoxy}phenyl)-1-carboxyethyl]-1,4,7,10-tetraazacyclododecane-1,4,7-triyl}triacetate] | 107 % of RC1 | 22 | 27 % of RC1 | 92
